Patent US20190339292

Legend:
[1] = tested on: Aβ43
[2] = tested on: human wild type APPC99-3xFLAG substrate
[3] = tested on: Human Amyloid 45 fragment (Aβ45)
[4] = tested on: Aβ42
[5] = tested on: V46I (V717I) mutant APPC99-3xFLAG substrate
[6] = tested on: Notch-based (Notch-3xFLAG) substrate
[7] = tested on: V46F (V717F) mutant APPC99-3xFLAG substrate
[8] = tested on: T43I (T714I) mutant APPC99-3xFLAG substrate
[9] = tested on: Human Amyloid 46 fragment (Aβ46)
[10] = tested on: I45F (I716F) mutant APPC99-3xFLAG substrate

| Substance | Tm (° C.) of Aβ40 generation (carboxypeptidase-like activity) [1] [°C] | Tm (° C.) of AICD-3XFLAG production (endopeptidase activity) [2] [°C] | Tm (° C.) of Aβ42 generation (carboxypeptidase-like activity) [3] [°C] | Tm (° C.) of Aβ38 generation (carboxypeptidase-like activity) [4] [°C] | other results |
| --- | --- | --- | --- | --- | --- |
| L166P-PSEN1 mutant γ-secretase complex (PSEN1/APH1A) | 41.9 | 48.5 | 41 | 43.9 | – |
| R278I-PSEN1 mutant γ-secretase complex (PSEN1/APH1A) | – | 52.4 | – | – | – |
| M139V-PSEN1 mutant γ-secretase complex (PSEN1/APH1A) | 46.2 | 54.2 | 47.9 | 44 | – |
| E280A-PSEN1 mutant γ-secretase complex (PSEN1/APH1A) | 45.4 | 56.6 | 48.8 | 45 | – |
| Y115H-PSEN1 mutant γ-secretase complex (PSEN1/APH1A) | 45.6 | 53.4 | 47 | 44.3 | – |
| G384A-PSEN1 mutant γ-secretase complex (PSEN1/APH1A) | 44.2 | 48.9 | 45.3 | 44.2 | – |
| L435F-PSEN1 mutant γ-secretase complex (PSEN1/APH1A) | – | 48.6 | – | – | – |
| purified wild type human γ-secretase (PSEN1/APH1a) | 50.4 | 61.1 | 54.7 | – | Tm (° C.) of AICD-3XFLAG production (endopeptidase activity) [5]: 58 °C; decrease of the conversion of Aβ43 to Aβ40 at 51° C. against 37° C. [1]: drastically decreases (˜82%) at 51 °C; optimum temperature of Aβ40 production, 95% CI [1]: Aβ40 (95% CI=38.3 to 40.7° C.); Tm of NICD production (ε-cleavage), 95% CI [6]: 95% CI: 57.4° C-59.2 °C; Tm (° C.) of AICD-3XFLAG production (endopeptidase activity) [7]: 55.4 °C; Tm (° C.) of AICD-3XFLAG production (endopeptidase activity) [8]: 59.8 °C; Km, Aβ46 → Aβ43, 37° C. [9]: 3.3 µM; Km, Aβ46 → Aβ43, 51° C. [9]: 2.3 µM; optimum temperature of Aβ43 production, 95% CI [9]: Aβ43 (95% CI=47.8 to 49.6° C.); Tm (° C.) of AICD-3XFLAG production (endopeptidase activity) [10]: 56.4 °C; Km, Aβ45 → Aβ42, 37° C. [3]: 2.9 µM; Km, Aβ45 → Aβ42, 45° C. [3]: 1.7 µM; Km, Aβ45 → Aβ42, 51° C. [3]: 1.4 µM; optimum temperature of Aβ42 production, 95% CI [3]: Aβ42 (95% CI=43.9 to 46.4° C.) |
